Results: patent US20210228566A1, “METHODS OF TREATING A NEUROLOGICAL OR PSYCHIATRIC DISORDER” (priority 2018, published 2021)

The chains behind the UniProt entries cited, without tags or fusion partners.
UniProt Q01827, whole entry: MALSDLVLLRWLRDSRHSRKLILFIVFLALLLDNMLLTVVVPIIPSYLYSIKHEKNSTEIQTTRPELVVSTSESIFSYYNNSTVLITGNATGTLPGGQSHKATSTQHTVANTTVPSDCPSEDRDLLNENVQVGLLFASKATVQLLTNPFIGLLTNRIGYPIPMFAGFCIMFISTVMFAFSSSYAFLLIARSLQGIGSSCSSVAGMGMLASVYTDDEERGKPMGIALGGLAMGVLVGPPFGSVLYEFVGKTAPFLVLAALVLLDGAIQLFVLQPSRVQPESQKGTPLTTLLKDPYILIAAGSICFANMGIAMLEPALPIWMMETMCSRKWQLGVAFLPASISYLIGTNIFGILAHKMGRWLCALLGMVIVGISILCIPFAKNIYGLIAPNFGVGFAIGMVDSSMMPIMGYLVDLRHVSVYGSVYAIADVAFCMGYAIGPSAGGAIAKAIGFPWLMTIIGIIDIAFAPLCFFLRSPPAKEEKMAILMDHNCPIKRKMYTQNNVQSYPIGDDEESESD

Biological target: T1, VMAT2 (Rattus norvegicus, UniProt Q01827)
T1 construct: from tissue; host or cells: rat forebrain membranes
Assay: inhibition of [3H]-DHTBZ binding to rat forebrain membranes

Row | Structure (SMILES) | affinity weaker than R,R,R-DHTBZ
1 | COc1cc2c(cc1OC)[C@@H]1C[C@@H](O)[C@@H](CC(C)C)CN1CC2 [R,S,S-DHTBZ] | ~160 times
2 | COc1cc2c(cc1OC)[C@@H]1C[C@H](O)[C@@H](CC(C)C)CN1CC2 [S,S,S-DHTBZ] | approximately 60 times
